Test results: ChEMBL document CHEMBL3861947 (Medchemcomm, 2016)
pIC50: −log10 of the molar value.

Protein sequences, listed by entry. Tags and fused reporters are not part of them. Lines headed by an entry give the natural chain unless they say otherwise; changes in a name come on top.
UniProt Q9GZT9: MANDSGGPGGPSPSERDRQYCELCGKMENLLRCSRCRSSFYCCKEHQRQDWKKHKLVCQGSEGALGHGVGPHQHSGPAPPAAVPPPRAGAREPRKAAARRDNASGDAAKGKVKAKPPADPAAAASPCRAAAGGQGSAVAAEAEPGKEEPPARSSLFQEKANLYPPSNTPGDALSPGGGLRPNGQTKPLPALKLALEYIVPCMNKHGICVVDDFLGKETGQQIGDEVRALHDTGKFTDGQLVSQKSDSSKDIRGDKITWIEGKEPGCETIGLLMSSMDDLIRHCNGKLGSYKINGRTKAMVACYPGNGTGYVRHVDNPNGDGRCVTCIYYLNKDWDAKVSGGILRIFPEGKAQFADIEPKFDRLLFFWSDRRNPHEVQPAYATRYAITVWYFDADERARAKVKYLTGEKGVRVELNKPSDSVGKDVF

Target: Egl nine homolog 1 (Homo sapiens, UniProt Q9GZT9)

`O=C(O)CNC(=O)c1ncc(-c2cccc(Cl)c2)cc1O` [VADADUSTAT] showed a pIC50 of 6.41.
